Assay results reported in patent publication US20160252495A1 (UNIVERSITY OF BRITISH COLUMBIA, published 2016).

Molecular target: T1, hen egg white lysozyme (hen, UniProt P00698 19-147)
T1 construct: also called HEL; hen-egg lysozyme
Assay: microfluidic bead assay with hybridoma cells

B1: HyHEL5 anti-hen egg lysozyme monoclonal antibody (antibody, V domains shown)
VH: EVQLQQSGAELMKPGASVKISCKASGYTFSDYWIEWVKQRPGHGLEWIGEILPGSGSTNYHERFKGKATFTADTSSSTAYMQLNSLTSEDSGVYYCLHGNYDFDGWGQGTTLTVSS
VL: DIVLTQSPAIMSASPGEKVTMTCSASSSVNYMYWYQQKSGTSPKRWIYDTSKLASGVPVRFSGSGSGTSYSLTISSMETEDAATYYCQQWGRNPTFGGGTKLE
B1: binds.
